Consider one compound from patent US20220274980A1, “PHARMACOLOGICAL INHIBITORS OF THE ENL YEATS DOMAIN” (priority 2019, published 2022).

Amino acid sequences for entries named in this document (tags omitted). Residues count along the entry.
UniProt Q03111, 1-138 limits assumed: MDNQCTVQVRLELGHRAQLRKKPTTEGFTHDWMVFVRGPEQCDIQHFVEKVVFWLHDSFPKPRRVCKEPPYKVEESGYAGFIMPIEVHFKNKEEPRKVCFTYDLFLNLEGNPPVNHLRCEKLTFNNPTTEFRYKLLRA
UniProt Q03111, 1-148 limits assumed: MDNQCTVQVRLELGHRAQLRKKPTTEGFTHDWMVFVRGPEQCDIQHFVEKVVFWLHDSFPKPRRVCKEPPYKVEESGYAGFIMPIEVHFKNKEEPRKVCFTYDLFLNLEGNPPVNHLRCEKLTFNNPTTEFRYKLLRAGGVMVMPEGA

In one assay the target is BRD4 bromodomain 1 (BD1) (Homo sapiens, UniProt O60885). Put plainly: BRD4 (BD1)-H4 tetra-acetylated HTRF histone-binding assay. The conditions noted are these: read-out: BRD4 (BD1)-H4 tetra-acetylated HTRF (IC50). As for the experimental part:
Protein Production. Double stranded DNA fragments encoding the protein sequence of ENL YEATS(1-148) were synthesized (IDT DNA) for assembly-based cloning into a modified expression vector backbone derived from pET21a (Novagen). The protein was fused to a StrepII-SUMO and 6×His tag on the amino and carboxy terminus, respectively. Transformed BL21(DE3) cells (New England Biolabs) were grown at 37° C. in 2×YT growth medium to an OD600 of 0.6. Protein expression was induced at 25° C. with the addition of isopropyl-β-D-thiogalactopyranoside (IPTG) to a final concentration of 0.4 mM. The culture was harvested by centrifugation following a 20-hour incubation and subsequently purified by immobilized metal affinity chromatography. Cells were resuspended 50 mM Tris-HCl pH 8.0, 300 mM NaCl, 10% glycerol, 10 mM imidazole, 1 mM DTT containing Complete EDTA-free protease inhibitor (Roche) and lysed by two passes through a MicroFluidizer at 10,000 psi. The lysate was clarified by centrifugation at 16,000 rpm for 30 minutes at 4° C. […]
Homogenous time-resolved FRET (HTRF) histone-binding assays. […] Assays were incubated for 2 or more hours before measurement of HTRF signal on a PHERAstar plate reader (BMG Labtech; simultaneous dual emission; excitation=337 nm, emission 1=665 nm, emission 2=620 nm). […]

For assay [1], the target named is ENL YEATS domain (association with H3K27cr) (Homo sapiens, UniProt Q03111).
In the next assay the target is ENL(YEATS)-HiBiT (Homo sapiens, UniProt Q03111).

Where two headings read alike, the source gives them in different places.

Take `CC(C)NC(=O)c1ccc2nc(-c3cccnc3)cn2c1`: the IC50 at BRD4 bromodomain 1 (BD1) (Table 1) is greater than 50 µM; at BRD4 bromodomain 1 (BD1) (Table 2), greater than 50 µM; in assay [1] it was 6.5 µM; against ENL(YEATS)-HiBiT, 75 µM.
